Test results as given in patent US5514653A, “Method of blocking the SEC receptor” (Washington University, priority 1994, dated 1996).

Test system: PC12 cells
Test: MTT assay of neurotoxicity in PC12 cells
Assay type: cell-based
Conditions: FIG. 1 and 2
From the text: The MTT assay (19) was used to monitor the neurotoxicity of amyloid-β peptide. […] Inhibition of MTT reduction is a specific, early indicator of amyloid-β-mediated cytotoxicity. The PC12 cell line was used because it is the most well characterized cell line of neuronal origin and because previous studies have shown there is abundant expression of SEC receptor in this cell line. Using ^125 I peptide 105Y there is specific, saturable binding.
First, the effect of amyloid-β 25-35 on MTT reduction in PC12 cells was examined (FIG. 1). PC12 cells were incubated for six (6) hours at 37° C. with amyloid-β 25-35 in several different concentrations as shown on the horizontal axis. MTT was added and the cells incubated at 37° C. for another two (2) hours. Cell extraction buffer was added and the incubation continued at 37° C. overnight. […] Results were reported as percent control response as determined by the difference between control cells and cells lysed prior to incubation with MTT. […]
In the MTT assay used herein, inhibition of cellular redox activity is measured by 3- 4,5-dimethylthiazol-2-yl!-2,5-diphenyltetrazolium bromide (MTT) by conventional procedures as described by Hansen et al. (19).

Substance: amyloid-β 1-16: region of the amyloid-β protein (DAEFRHDSGYEVHHQK)
- effect on MTT reduction: no effect
